Reference: patent US6858428B2, “Human and animal cell culture medium containing antithrombin III for suppressing cell death” (Agency of Industrial Science and Technology, priority 1999, dated 2005)

Tested on: hepatoma cell line HepG2
Assay: Survival of hepatoma cell line HepG2 in serum-free culture (viable cell count after 3 days)
Type: cell-based
Protocol: Two mL cell suspension of hepatoma cell line HepG2 dispersed in trypsin (5×10^5 cells) were inoculated on six multi-well plates and pre-culture by using Dulbecco's modified Eagle medium (DMEM) containing 5% fetal bovine serum, 1.6 g/L sodium hydrogencarbonate, 0.584 g/L L-glutamine, and 0.08 g/L kanamycin sulfate at 37° C. in a 5% CO2 gas phase. After one day, the broth was recovered, the cell surfaces were washed with serum-free medium, and the culture was continued for another 3 days with the addition of medium containing 5%, 0% fetal bovine serum, and 2 mL of fresh medium comprising the growth factors and hormones given in Table 1, which have been reported as survival factors, and antithrombin III, albumin, orosomucoid, transferrin, or typical serum proteins such as α1-antitrypsin, which were added to media containing no fetal bovine serum (0%). The viable cell count was assayed after 3 days of culture.
The hepatoma cell line HepG2 was pre-cultured in the same manner as in Example 1. After 1 day, the broth was recovered, the cell surfaces were washed with serum-free medium, and the culture was continued for another 3 days with the addition of medium containing 5%, 0% fetal bovine serum, or 2 mL of fresh medium comprising antithrombin III added in concentrations ranging from 1 to 25 μg/mL to media containing no fetal bovine serum (0%). […]

Albumin: typical serum protein used for comparison
Survival rate (HepG2, DMEM without fetal bovine serum, additive 225 μg/ml): 65.0%
Effect in controlling cell death (in words) (HepG2, serum-free medium, concentration not given): virtually no effect in controlling cell death
